# From PubChem BioAssay AID492953 (The Scripps Research Institute Molecular Screening Center, 2010)
# Protein sequences, listed by entry. Tags and fused reporters are not part of them. Lines headed by an entry give the natural chain unless they say otherwise; changes in a name come on top.
# UniProt P68402: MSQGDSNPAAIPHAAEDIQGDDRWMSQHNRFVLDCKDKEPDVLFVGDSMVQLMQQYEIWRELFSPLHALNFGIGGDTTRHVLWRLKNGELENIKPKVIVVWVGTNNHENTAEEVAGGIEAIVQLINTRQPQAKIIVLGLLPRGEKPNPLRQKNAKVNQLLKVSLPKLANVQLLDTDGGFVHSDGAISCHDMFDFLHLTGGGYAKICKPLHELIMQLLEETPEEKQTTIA
# Only a part is listed here, and it is no random draw. Activity calls are given as the source filed them.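 The calls were made as follows: active = inhibition above the mean of all tested compounds plus 3 SD (cut at about 24% in these data); inactive = the rest.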
# Target: Platelet-activating factor acetylhydrolase IB subunit alpha2 (Homo sapiens) (UniProt P68402)
# Experiment: PAFAH1B2 enzyme inhibitors, primary screen, biochemical, fluorescence polarization, human (AID 492953);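 also: 0% = enzyme with DMSO and 100% = wells lacking PAFAH1B2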
# Details: recombinant PAFAH1B2, FP-rhodamine activity probe, at 3.39 µM, hits give high values
row,Compound,inhibition
1,O=P1(Nc2nc3ccc(Cl)cc3s2)COc2ccccc2O1 (centres undefined),inactive: 4.84%
2,CCOc1ccc(C2=NCC(CBr)S2)cc1 (centres undefined),inactive: 0.84%
3,Cc1ccccc1OP(=O)(Nc1ccccn1)Oc1ccccc1C,inactive: -2.29%
4,CC(NC(=O)COC(=O)C(O)(c1ccccc1)c1ccccc1)c1ccccc1 (centres undefined),inactive: 9.21%
5,CN(C)C(=O)Oc1noc2ccccc12,inactive: 1.89%
6,O=c1c2cc([N+](=O)[O-])ccc2[nH]c2c([N+](=O)[O-])cc([N+](=O)[O-])cc12,active: 29.1%
7,COC(=O)c1cc2c(s1)N=C(c1ccccc1)N(C)P2(=O)N1CCOCC1 (centres undefined),inactive: 2.23%
8,Cc1ccc(OP(=O)(Nc2ccccn2)Oc2ccc(C)cc2)cc1,inactive: 0.16%
9,CC(=O)NC(SC(=S)N(CC(C)C)CC(C)C)C(Cl)(Cl)Cl (centres undefined),inactive: 13.2%
10,O=C(OC1CN2CCC1CC2)c1ccccc1 (centres undefined),inactive: 1.27%
11,CCC(=O)N1C2C3N(C(=O)CC)C1C1N(C(=O)CC)C(C(N1C(=O)CC)N3C(=O)CC)N2C(=O)CC,inactive: -0.94%
12,O=P1(N(CCCl)CCCl)OCCC2CCCCN21 (centres undefined),inactive: 0.24%
13,O=C(NC1CCS(=O)(=O)C1)NP(=S)(Oc1ccccc1)Oc1ccccc1 (centres undefined),inactive: 14.5%
14,CCNC(=S)/N=C(\N)N[N+](=O)[O-],inactive: 5%
15,Nc1ccc([As](=O)(O)c2ccc([N+](=O)[O-])cc2)cc1,inactive: 6.78%
16,C(Cc1nn[nH]n1)Cc1nn[nH]n1,inactive: 5.16%
17,O=C(OC1CN2CCC1CC2)c1cccc(Cl)c1 (centres undefined),inactive: 3.12%
18,O=[N+]([O-])c1ncn(CCn2cnc([N+](=O)[O-])n2)n1,inactive: -0.97%
19,CC(=O)NC(SC(=S)N(C)C)C(Cl)(Cl)Cl (centres undefined),inactive: 3.22%
20,O=[N+]([O-])c1ccc(O)c(/C=N/Nc2ccc([N+](=O)[O-])cc2[N+](=O)[O-])c1,inactive: 3.72%
21,O=[As](O)(c1ccccc1)c1ccc(O)cc1,inactive: -2.06%
22,O=P(Nc1nc2ccccc2s1)(c1ccccc1)c1ccccc1,inactive: 3.28%
23,C[C@H]1OP(=O)(Oc2ccccc2)[C@H](O)[C@H](O)[C@H]1N=[N+]=[N-] (some centres undefined),inactive: -2.75%
24,COc1ccc(N)c([N+](=O)[O-])c1[N+](=O)[O-],inactive: -3.94%
25,CN(C)C1(CNC(=O)c2ccc(Cl)c(S(N)(=O)=O)c2)CCCCC1,inactive: 3.86%
26,O=P(Nc1ccccn1)(c1ccc(Br)cc1)c1ccc(Br)cc1,inactive: 0.7%
27,c1nnnn1CCn1cnnn1,inactive: 1.46%
28,O=P(Nc1nccs1)(c1ccccc1)c1ccccc1,inactive: 8.14%
29,CC(C)C(=O)NC(Sc1ccccc1)C(Cl)(Cl)Cl (centres undefined),inactive: 0.86%
